Structures are written as SMILES.

Amino acid sequences for entries named in this document (tags omitted). Residues count along the entry.
UniProt P13497, 121-986 limits assumed: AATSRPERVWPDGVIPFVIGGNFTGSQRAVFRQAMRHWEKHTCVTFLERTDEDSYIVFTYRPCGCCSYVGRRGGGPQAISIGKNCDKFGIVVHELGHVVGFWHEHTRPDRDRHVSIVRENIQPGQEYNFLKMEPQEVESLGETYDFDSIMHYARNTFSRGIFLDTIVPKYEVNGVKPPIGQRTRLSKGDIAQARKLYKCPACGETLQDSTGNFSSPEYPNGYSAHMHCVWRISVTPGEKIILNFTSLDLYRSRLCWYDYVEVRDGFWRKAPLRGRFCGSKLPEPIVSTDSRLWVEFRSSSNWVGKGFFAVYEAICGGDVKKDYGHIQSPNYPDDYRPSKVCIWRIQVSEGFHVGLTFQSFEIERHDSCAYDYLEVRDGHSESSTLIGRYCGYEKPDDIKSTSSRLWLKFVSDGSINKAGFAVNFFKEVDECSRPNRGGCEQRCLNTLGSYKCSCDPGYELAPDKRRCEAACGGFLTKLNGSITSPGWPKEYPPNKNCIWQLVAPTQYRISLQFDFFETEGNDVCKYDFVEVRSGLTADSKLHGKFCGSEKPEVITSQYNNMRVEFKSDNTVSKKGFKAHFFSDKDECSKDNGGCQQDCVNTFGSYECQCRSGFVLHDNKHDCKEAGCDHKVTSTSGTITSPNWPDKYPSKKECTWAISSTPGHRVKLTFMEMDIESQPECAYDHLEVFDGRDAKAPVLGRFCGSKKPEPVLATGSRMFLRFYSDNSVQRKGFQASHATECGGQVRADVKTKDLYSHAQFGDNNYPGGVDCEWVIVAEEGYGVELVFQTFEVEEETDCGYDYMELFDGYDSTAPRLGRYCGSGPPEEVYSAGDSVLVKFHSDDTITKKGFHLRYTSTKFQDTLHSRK

For this test, the target named is recombinant human C-proteinase (Homo sapiens, UniProt P13497). As to the kind of experiment: C-proteinase IC50 assay with fluorogenic peptide. The settings on record: read-out: IC50 (μM) Of Various C-Proteinase Inhibitors, 50 μM fluorogenic peptide, 4 hours at 37° C. In kind it is biochemical.
Take `COC(=O)c1ccccc1S(=O)(=O)N(CCC(=O)NO)CCc1ccc(OC)cc1`: the IC50 (as a rule, the concentration that gives 50% inhibition) was 2.42 µM.

On to `O=C(CCN(Cc1ccc2c(c1)OCO2)S(=O)(=O)c1ccc(C(F)(F)F)cc1)NO`, for which the IC50 came out at 2.6 µM.

As for `COc1ccc(CCN(CCC(=O)NO)S(=O)(=O)c2ccc(C(=O)NO)s2)cc1`, the IC50 is 4.08 µM. In the case of `COc1ccc(S(=O)(=O)N(CCC(=O)NO)CCc2cccs2)cc1OC` it was 3.85 µM; in that of `COc1ccc(S(=O)(=O)N(CCCC(=O)NO)c2ccccc2)cc1`, 29 µM; in that of `O=C(CCN(CCc1cccs1)S(=O)(=O)c1ccc(C(=O)O)cc1)NO`, 0.58 µM. In the case of `NC(=NO)c1ccccc1S(=O)(=O)N(CCC(=O)NO)CCc1cccs1` it was 12.9 µM. In the case of `O=C(CCN(Cc1ccc2c(c1)OCO2)S(=O)(=O)c1ccc(C(=O)O)cc1)NO` it was 0.87 µM; in that of `O=C(CCN(CCc1cccs1)S(=O)(=O)c1ccc(OC(F)(F)F)cc1)NO`, 8.88 µM; in that of `CS(=O)(=O)c1ccccc1S(=O)(=O)N(CCC(=O)NO)CCc1cccs1`, 17.5 µM.

In the case of `O=C(CCN(Cc1ccc2c(c1)OCO2)S(=O)(=O)c1c(Cl)nc2sccn12)NO`, the IC50 is 0.59 µM.

Turning to `COc1ccc(S(=O)(=O)N(CCCC(=O)NO)Cc2ccccc2)cc1`, the IC50 worked out at 10 µM. With `COc1ccc(S(=O)(=O)N(CC(=O)NO)c2ccccc2)cc1` the figure was 39 µM; with `N#Cc1c(Cl)cccc1Oc1ccc(S(=O)(=O)N(CCC(=O)NO)CCc2cccs2)cc1`, 5.37 µM; with `O=C(CCN(Cc1ccc2c(c1)OCO2)S(=O)(=O)c1ccc(OC(F)(F)F)cc1)NO`, 2.85 µM. As to `O=C(CCN(CCc1cccs1)S(=O)(=O)c1cccc2nsnc12)NO`, the IC50 was determined as 3 µM. On to `COC(=O)c1ccccc1S(=O)(=O)N(CCC(=O)NO)CCc1cccs1`, for which the IC50 was 15.4 µM. In the case of `O=C(CCN(CCc1cccs1)S(=O)(=O)c1cccc(C(=O)O)c1)NO` it was 0.75 µM. With `COc1ccc(CCN(CCC(=O)NO)S(=O)(=O)c2ccccc2C(N)=NO)cc1`, the IC50 turned out to be 7.12 µM. Take `O=C(CCN(CCc1cccs1)S(=O)(=O)c1c(Cl)nc2sccn12)NO`: the IC50 came to 2.61 µM. As for `NC(=NO)c1ccccc1S(=O)(=O)N(CCC(=O)NO)Cc1ccc2c(c1)OCO2`, the IC50 worked out at 19.1 µM. In the case of `COc1ccc(N(CC(=O)NO)S(=O)(=O)c2ccc(OC)cc2)cc1` it was 72.8 µM; in that of `O=C(CCN(CCc1cccs1)S(=O)(=O)c1ccc(C(F)(F)F)cc1)NO`, 8.36 µM. As for `O=C(CCN(Cc1ccc2c(c1)OCO2)S(=O)(=O)c1cccc(C(=O)O)c1)NO`, the IC50 was found to be 0.35 µM. With `COc1ccc(S(=O)(=O)N(CCC(=O)NO)CCc2ccc(OC)c(OC)c2)cc1` the figure was 14.5 µM; with `N#Cc1c(Cl)cccc1Oc1ccc(S(=O)(=O)N(CCC(=O)NO)Cc2ccc3c(c2)OCO3)cc1`, 6.01 µM. With `COc1ccc(S(=O)(=O)N(CCC(=O)NO)CCc2cccs2)cc1` the figure was 5.7 µM; with `COc1ccc(S(=O)(=O)N(CCC(=O)NO)C2CCN(Cc3ccccc3)CC2)cc1`, above 10 µM. As for `CS(=O)(=O)c1ccccc1S(=O)(=O)N(CCC(=O)NO)Cc1ccc2c(c1)OCO2`, the IC50 came to 8.39 µM. With `O=C(CCN(Cc1ccc2c(c1)OCO2)S(=O)(=O)Cc1ccccc1)NO` the figure was 1.17 µM; with `COc1ccc(CCN(CCC(=O)NO)S(=O)(=O)c2ccccc2S(C)(=O)=O)cc1`, 9.07 µM; with `COC(=O)c1ccccc1S(=O)(=O)N(CCC(=O)NO)Cc1ccc2c(c1)OCO2`, 9.07 µM. Regarding `COc1ccc(S(=O)(=O)N(CCC(=O)NO)CC2CCCO2)cc1` (centres unmarked), the concentration for half-maximal inhibition (IC50) was above 10 µM. With `Cn1cnc(S(=O)(=O)N(CCC(=O)NO)Cc2ccc3c(c2)OCO3)c1` the figure was 12.4 µM.

With `Cn1cnc(S(=O)(=O)N(CCC(=O)NO)CCc2cccs2)c1`, the IC50 is 13.7 µM.

Values taken from US6506936B1, “N-substituted arylsulfonylamino hydroxamic acids useful as inhibitors of c-proteinase and for treating or preventing disorders related to unregulated collagen production” (FibroGen, Inc., priority 1999, dated 2003).
